Assay results as given in patent publication US12138263B2, “Pyrazolo[3,4-b]pyrazine SHP2 phosphatase inhibitors and methods of use thereof” (Relay Therapeutics, Inc., priority 2018, dated 2024).

Chains of the proteins cited; added tags and fusions are not shown.
UniProt Q06124, whole entry: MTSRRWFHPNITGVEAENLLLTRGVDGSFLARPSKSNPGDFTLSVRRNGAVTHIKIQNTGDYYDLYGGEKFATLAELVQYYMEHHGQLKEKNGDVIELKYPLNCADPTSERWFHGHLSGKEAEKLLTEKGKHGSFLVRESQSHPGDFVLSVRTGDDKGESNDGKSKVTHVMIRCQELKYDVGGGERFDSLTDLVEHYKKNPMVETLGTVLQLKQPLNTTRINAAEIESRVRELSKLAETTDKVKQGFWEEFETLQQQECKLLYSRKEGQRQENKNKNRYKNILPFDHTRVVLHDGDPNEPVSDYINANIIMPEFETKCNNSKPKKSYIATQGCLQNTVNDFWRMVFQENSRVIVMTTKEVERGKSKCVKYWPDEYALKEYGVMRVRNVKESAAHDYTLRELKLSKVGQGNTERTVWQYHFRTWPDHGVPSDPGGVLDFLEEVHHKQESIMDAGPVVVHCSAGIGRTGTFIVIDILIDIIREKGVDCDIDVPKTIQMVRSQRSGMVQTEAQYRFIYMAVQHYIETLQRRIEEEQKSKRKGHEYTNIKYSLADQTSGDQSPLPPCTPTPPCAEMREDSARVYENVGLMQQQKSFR

Target: SHP2 (Homo sapiens (Human), UniProt Q06124)
Assay: SHP2 allosteric inhibition assay (DiFMUP prompt fluorescence)
Type: biochemical
Conditions: read-out: SHP2 IC50; Table 3; 0.25 nM SHP2 with 0.5 μM peptide IRS1_pY1172(dPEG8)pY1222, substrate DiFMUP 100 μM

## C[C@@H]1OCC2(CCN(c3nc4[nH]nc(N5CCCc6nc(-c7cnn(C)c7)ccc65)c4nc3CO)CC2)[C@@H]1N
  IC50: < 1 µM
